Data published in patent US7084169B2, “Aminoalkoxyindoles and methods of use” (Roche Palo Alto LLC, priority 2002, dated 2006).

Chains of the proteins cited; added tags and fusions are not shown.
UniProt P50406, whole entry: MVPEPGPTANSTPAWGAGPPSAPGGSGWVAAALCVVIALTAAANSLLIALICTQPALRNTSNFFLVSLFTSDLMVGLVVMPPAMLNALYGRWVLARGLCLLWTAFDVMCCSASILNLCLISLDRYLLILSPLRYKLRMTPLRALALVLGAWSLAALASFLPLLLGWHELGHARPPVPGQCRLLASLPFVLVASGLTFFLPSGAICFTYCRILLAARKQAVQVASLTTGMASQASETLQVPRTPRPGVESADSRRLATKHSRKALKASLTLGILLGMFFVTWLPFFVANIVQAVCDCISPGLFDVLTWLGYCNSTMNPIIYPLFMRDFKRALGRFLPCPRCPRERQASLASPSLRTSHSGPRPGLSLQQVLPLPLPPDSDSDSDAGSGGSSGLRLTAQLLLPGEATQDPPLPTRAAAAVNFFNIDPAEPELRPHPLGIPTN

Molecular target: recombinant human 5-HT6 receptor (Homo sapiens, UniProt P50406)
Assay: Radioligand binding studies, competition for [3H]LSD binding in HEK293 cell membranes
Conditions: [3H]LSD (5 nM), membranes of HEK293 cells stably expressing recombinant human 5-HT6 receptor, pH 7.4, 37° C., 60 min; tested form: HCl
Method: The binding activity of compounds of this invention in vitro was determined as follows. Duplicate determinations of ligand affinity are made by competing for binding of [^3H]LSD in cell membranes derived from HEK293 cells stably expressing recombinant human 5-HT6 receptor.
All determinations were made in assay buffer containing 50 mM Tris-HCl, 10 mM MgSO4, 0.5 mM EDTA, 1 mM ascorbic acid, pH 7.4 at 37° C., in a 250 microliter reaction volume. Assay tubes containing [^3H] LSD (5 nM), competing ligand, and membrane were incubated in a shaking water bath for 60 min. at 37° C., filtered onto Packard GF-B plates (pre-soaked with 0.3% PEI) using a Packard 96 well cell harvester and washed 3 times in ice cold 50 mM Tris-HCl. Bound [^3H] LSD was determined as radioactive counts per minute using Packard TopCount.
Displacement of [3H]LSD from the binding sites was quantified by fitting concentration-binding data to a 4-parameter logistic equation:
[formula] where Hill is the Hill slope, [ligand] is the concentration of competing radioligand and IC50 is the concentration of radioligand producing half-maximal specific binding of radioligand. The specific binding window is the difference between the Bmax and the basal parameters.

## O=S(=O)(c1cc(Cl)ccc1Cl)c1c[nH]c2c(OCCN3CCCC3)cccc12
  5-HT6 affinity values (pKi): 8.2
